# Values of other authors in US4968696A, “N,N'-bis-L-amino acid-L-cystine-peptide containing amino acid preparations for oral parenteral nutrition” (Pfrimmer + Co. Pharmazeutische Werke Erlangen GmbH + co. KG, priority 1986, dated 1990).
# Conditions: cited from earlier work
substance,measurement,value
N^2 -L-cystinyl-N^6 -L-cystinyl-L-lysine,solubility in water (prior art statement),readily soluble in water
